The chains behind the UniProt entries cited, without tags or fusion partners. Residues count along the entry.
UniProt P31424, 21-1203: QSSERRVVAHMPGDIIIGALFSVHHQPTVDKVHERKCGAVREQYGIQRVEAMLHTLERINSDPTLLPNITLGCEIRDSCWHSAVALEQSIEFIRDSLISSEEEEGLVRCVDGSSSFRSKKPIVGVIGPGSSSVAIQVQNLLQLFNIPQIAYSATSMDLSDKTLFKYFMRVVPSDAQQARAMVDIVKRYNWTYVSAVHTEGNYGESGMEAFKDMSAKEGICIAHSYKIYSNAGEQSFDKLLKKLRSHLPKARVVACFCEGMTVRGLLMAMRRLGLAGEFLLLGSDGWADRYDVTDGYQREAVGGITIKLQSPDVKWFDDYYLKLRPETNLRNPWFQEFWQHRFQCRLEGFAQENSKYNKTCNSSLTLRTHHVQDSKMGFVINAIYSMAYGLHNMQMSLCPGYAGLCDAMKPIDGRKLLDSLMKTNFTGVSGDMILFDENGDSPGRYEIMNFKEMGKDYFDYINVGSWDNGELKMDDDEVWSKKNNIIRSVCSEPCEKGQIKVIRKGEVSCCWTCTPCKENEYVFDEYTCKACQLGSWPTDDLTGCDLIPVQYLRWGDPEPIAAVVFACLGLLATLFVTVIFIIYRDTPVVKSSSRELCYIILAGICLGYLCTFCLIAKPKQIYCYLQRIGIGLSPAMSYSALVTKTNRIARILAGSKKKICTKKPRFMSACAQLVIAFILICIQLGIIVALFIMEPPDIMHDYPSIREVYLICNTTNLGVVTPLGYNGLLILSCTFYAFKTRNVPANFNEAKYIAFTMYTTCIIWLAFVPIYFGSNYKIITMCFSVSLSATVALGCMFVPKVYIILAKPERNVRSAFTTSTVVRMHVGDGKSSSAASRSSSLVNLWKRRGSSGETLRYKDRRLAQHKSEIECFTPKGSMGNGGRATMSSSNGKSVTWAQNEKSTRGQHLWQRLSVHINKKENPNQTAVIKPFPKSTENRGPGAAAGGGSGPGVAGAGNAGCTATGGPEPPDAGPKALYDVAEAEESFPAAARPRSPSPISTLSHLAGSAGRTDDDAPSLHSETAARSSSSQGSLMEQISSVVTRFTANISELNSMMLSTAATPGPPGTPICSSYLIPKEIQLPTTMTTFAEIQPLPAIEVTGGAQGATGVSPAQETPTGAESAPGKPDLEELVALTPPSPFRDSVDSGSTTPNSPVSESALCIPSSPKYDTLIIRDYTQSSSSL

According to paper PMC2957851 (ACS Chemical Neuroscience, 2010):

Molecular target: MPEP site on mGlu5 (Rattus norvegicus, UniProt P31424)
Test: [3H]methoxyPEPy radioligand binding, membranes of rat mGlu5 HEK293 cells

- Ki: 0.035 ± 0.0104 µM
SMILES: Cc1cccc(C#Cc2ccccc2)n1 [MPEP, 2-methyl-6(phenylethynyl)pyridine, reference compound]
